{"source": "patent US5763625A", "about": "“Synthesis and use of β-lapachone analogs” (priority 1995, dated 1998)", "key": {"[1]": {"tested_on": "unirradiated U1-Mel cells"}, "purified human Topo I": {"molecular_target": "T1, purified human Topo I (Homo sapiens, UniProt P11387)", "T1 sequence (P11387 1-765)": "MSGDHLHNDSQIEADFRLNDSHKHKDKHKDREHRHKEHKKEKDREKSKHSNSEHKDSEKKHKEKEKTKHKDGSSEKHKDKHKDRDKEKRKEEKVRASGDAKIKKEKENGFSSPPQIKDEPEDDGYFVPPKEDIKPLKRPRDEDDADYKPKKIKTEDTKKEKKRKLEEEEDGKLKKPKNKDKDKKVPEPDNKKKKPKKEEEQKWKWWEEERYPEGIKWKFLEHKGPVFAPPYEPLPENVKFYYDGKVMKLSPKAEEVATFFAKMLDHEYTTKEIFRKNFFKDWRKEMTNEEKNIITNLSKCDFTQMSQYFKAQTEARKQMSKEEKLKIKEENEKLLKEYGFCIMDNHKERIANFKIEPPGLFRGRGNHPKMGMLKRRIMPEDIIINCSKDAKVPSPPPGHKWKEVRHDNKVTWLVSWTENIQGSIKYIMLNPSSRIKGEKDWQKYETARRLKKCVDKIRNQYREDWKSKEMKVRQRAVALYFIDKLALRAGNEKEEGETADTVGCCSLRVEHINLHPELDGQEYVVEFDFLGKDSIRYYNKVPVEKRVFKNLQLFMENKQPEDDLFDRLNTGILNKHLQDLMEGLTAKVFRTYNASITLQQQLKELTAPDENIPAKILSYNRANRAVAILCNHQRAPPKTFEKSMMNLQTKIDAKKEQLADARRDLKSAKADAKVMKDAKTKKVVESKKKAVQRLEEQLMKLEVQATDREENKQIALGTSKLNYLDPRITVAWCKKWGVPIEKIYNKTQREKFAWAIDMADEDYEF", "experiment": "Topo I inhibition, DNA unwinding assay", "type": "biochemical"}, "Topo I": {"molecular_target": "T2, Topo I (Cricetulus griseus, UniProt Q07050)", "T2 construct": "Extracts from unirradiated CHEF/18 cells and its neoplastic derivatives; endogenous in cells; host or cells: CHEF/18 cells and neoplastic derivatives 21-2M3 and T30-4 (extracts)", "T2 sequence (Q07050 1-767)": "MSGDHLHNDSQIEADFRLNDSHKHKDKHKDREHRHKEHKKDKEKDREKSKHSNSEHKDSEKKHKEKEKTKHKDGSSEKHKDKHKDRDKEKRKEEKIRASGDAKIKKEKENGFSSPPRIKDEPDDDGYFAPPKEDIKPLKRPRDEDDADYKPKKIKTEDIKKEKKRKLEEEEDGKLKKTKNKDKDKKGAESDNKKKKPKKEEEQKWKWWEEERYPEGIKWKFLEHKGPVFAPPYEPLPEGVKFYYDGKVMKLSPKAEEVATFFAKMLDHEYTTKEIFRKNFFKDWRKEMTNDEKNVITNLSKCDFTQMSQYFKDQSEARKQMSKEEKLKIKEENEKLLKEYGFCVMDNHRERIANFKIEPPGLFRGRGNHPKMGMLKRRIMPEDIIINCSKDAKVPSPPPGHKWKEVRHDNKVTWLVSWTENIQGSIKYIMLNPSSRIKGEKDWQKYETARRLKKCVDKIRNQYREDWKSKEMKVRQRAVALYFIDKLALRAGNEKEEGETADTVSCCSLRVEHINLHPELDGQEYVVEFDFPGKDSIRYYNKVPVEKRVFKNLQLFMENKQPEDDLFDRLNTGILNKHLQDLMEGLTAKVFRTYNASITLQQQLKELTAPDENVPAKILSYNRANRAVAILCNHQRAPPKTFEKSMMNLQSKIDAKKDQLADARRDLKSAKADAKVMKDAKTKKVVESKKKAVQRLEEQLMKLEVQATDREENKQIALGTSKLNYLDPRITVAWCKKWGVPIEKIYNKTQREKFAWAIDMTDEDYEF", "type": "biochemical, Chinese hamster"}}, "data": [{"smiles": "C=CCC1CC2=C(OC1(C)C)c1ccccc1C(=O)C2=O", "note": "(centres unmarked)", "values": [{"measurement": "cytotoxicity of longer exposure times", "setting": "[1]", "value": "did not enhance cytotoxicity"}, {"measurement": "effect on survival of unirradiated cells", "setting": "[1]", "value": "did not significantly effect survival"}, {"measurement": "toxicity compared with similar treatments with β-lapachone", "setting": "[1]", "value": "less toxic"}]}, {"smiles": "CC(C)=CCC1=C(O)C(=O)c2ccccc2C1=O", "note": "[lapachol]", "values": [{"measurement": "inhibition of Topo I", "setting": "purified human Topo I", "value": "did not inhibit Topo I"}]}, {"smiles": "COc1cc(NS(C)(=O)=O)ccc1Nc1c2ccccc2nc2ccccc12", "note": "[m-AMSA]", "values": [{"measurement": "Topo I enzymatic activity in presence of Topo II inhibitor", "setting": "Topo I", "value": "Enzymatic activity was observed"}]}]}
